As usually defined, the Ki is the dissociation constant of the complex between target and ligand, obtained from inhibition or displacement. Lower therefore signals tighter binding.

Amino acid sequences for entries named in this document (tags omitted). A change or cut given only in a name is not applied to a line headed by its entry.
UniProt Q12809: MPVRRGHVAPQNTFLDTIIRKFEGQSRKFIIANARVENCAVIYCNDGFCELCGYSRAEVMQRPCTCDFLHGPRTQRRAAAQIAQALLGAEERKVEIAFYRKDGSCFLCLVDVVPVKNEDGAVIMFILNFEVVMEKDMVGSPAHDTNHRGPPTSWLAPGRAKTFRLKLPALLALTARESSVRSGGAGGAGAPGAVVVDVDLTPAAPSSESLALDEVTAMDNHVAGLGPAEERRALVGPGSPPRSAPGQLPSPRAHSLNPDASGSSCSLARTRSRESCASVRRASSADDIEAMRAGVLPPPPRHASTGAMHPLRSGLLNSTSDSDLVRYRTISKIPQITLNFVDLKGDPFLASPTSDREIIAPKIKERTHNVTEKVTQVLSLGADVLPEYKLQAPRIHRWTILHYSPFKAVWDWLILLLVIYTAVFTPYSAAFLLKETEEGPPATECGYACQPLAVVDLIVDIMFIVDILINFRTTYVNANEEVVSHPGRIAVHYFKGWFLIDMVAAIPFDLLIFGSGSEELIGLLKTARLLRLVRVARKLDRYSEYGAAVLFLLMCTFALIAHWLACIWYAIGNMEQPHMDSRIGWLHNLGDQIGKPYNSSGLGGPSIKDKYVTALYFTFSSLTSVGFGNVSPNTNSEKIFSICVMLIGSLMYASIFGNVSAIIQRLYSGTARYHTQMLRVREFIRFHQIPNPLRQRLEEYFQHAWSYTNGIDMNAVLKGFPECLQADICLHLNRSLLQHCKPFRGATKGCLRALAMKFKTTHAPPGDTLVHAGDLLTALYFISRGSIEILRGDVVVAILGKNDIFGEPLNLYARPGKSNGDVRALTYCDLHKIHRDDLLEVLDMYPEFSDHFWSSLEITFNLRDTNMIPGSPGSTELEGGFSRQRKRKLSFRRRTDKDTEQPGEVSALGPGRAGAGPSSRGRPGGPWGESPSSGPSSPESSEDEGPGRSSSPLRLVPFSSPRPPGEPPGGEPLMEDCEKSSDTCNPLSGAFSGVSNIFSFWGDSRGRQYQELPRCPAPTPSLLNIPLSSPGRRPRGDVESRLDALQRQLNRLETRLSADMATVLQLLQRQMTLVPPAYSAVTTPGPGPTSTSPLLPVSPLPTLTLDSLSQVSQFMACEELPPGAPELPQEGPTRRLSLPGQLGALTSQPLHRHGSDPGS

Consider two compounds from ChEMBL document CHEMBL1156187, “Discovery of a selective small-molecule melanocortin-4 receptor agonist with efficacy in a pilot study of sexual dysfunction in humans” (J Med Chem, 2010).

The test deals with Voltage-gated inwardly rectifying potassium channel KCNH2 (Homo sapiens, UniProt Q12809).

Consider `C[C@@H]1CN(C(=O)[C@H]2CN(C3CCC3)C[C@@H]2c2ccc(F)cc2F)C[C@H](C)[C@@]1(O)c1ccccc1`, for which the Ki was found to be 5.87 µM.
The same measure for `C[C@@H]1CN(C(=O)[C@@H]2CN(C(C)(C)C)C[C@H]2c2ccc(F)cc2F)C[C@H](C)[C@@]1(O)c1ccc(F)cc1.Cl`: 7.91 µM.
